The source of these data is article PMC10390107, “The 4-(dimethylaminoalkyl)piperazine inhibitors of α-glucosidase: allosteric enzyme inhibition and identification of interacting chemical groups” (Turkish Journal of Chemistry, 2022).

The chains behind the UniProt entries cited, without tags or fusion partners. Where a name states a change or a piece, a line headed by the entry shows the natural chain unless it says otherwise.
UniProt P53341: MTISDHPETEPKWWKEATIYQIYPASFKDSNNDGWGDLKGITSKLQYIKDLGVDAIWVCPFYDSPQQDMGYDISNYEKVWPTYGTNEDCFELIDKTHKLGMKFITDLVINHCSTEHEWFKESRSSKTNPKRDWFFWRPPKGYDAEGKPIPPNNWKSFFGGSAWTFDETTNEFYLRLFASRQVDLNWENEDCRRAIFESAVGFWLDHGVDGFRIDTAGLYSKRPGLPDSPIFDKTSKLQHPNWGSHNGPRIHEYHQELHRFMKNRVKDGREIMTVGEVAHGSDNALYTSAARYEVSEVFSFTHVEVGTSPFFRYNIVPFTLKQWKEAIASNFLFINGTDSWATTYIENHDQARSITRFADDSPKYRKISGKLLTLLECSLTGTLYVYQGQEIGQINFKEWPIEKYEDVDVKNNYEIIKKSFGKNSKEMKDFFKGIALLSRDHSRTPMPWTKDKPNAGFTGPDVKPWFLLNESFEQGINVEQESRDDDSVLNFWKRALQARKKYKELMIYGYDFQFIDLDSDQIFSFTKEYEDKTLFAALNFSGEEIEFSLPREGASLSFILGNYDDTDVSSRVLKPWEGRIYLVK

The target of the assay is T1, α-glucosidase (EC 3.2.1.20) from Saccharomyces cerevisiae (Saccharomyces cerevisiae, UniProt P53341).
T1 construct: purchased Sigma Chemical Co., St. Louis, USA
The assay is described as follows: biochemical. The assay is classed as biochemical. The method, then:
All in vitro α-glucosidase inhibition assays were performed in a 96-well microplate format. The α-glucosidase inhibition assay reported elsewhere was customized to suit the experimental needs of the current work. The assay mixture contained 50 mM sodium phosphate buffer (pH 6.8), 20 mU of α-glucosidase (EC 3.2.1.20) from Saccharomyces cerevisiae (Sigma Chemical Co., St. Louis, USA), and 1.0 mM of p-nitrophenyl-α-D-glucopyranoside (PNP-G) substrate. All target compounds were dissolved in DMSO with the assay mixture containing DMSO at a final concentration of 3%. All compounds were first incubated with the enzyme at 37 °C for 15 min followed by commencement of the enzyme reaction by adding the substrate. The reaction was continuously monitored at 400 nm in SpectraMax Plus 384® microplate reader (Molecular Devices, CA, USA). […] All assays were performed as four individual experiments out of which the values of mean and standard error of mean (SEM) were calculated.
The enzyme kinetics assay procedure was essentially the same as mentioned above except that it was specifically designed for the kinetic work. The experiments included the addition of a range of target compound concentrations and that of the substrate (0.25–2.0 mM). In all experiments, only the linear portion of the enzyme reaction curves was selected for calculating initial velocities in the presence and absence of the target compounds. The type of inhibition was calculated from the Lineweaver-Burk plots which was further confirmed by the Dixon plot using Grafit 7.0.3 software (Erithacus Software Ltd., Staines, UK). The Ki values were also calculated from their respective Dixon plots. All kinetic experiments were conducted in quadruplicate from which mean Ki values and the SEM were calculated.

A word on the Ki: it is the dissociation constant of the complex between target and ligand, obtained from inhibition or displacement. Higher therefore signals lower affinity. As for `CN(C)CCCN1CCN(C(=S)SCC(=O)c2ccc(Cl)cc2Cl)CC1` [PC2], the inhibition constant Ki was determined as 12.7 ± 0.34 µM. The “fold less activity than PC1” value (comparison of Ki values) was determined as 2 fold.
Take `CN(C)CCCN1CCN(C(=S)SCC(=O)c2ccc(F)cc2F)CC1` [PC3]: the affinity, expressed as Ki, was 19.3 ± 0.51 µM.
Still for that read-out and setting: the figure for `CN(C)CCCN1CCN(C(=S)SCCC(=O)c2ccc(F)cc2)CC1` [PC4] is 19.4 ± 0.42 µM; for `CN(C)CCCN1CCN(C(=S)SCC(=O)c2ccc(F)cc2)CC1` [PC5] it is 19.8 ± 0.51 µM.
In the case of `CN(C)CCCN1CCN(C(=S)SCCCC(=O)c2ccccc2)CC1` [PC6], the Ki worked out at 20.9 ± 0.28 µM.
For the molecule `CN(C)CCCN1CCN(C(=S)SCC(=O)c2ccc(O)c(O)c2)CC1` [PC7], the Ki worked out at 21.3 ± 0.51 µM.
In the case of `CN(C)CCCN1CCN(C(=S)SCC(=O)c2ccc(Br)cc2)CC1` [PC8], the inhibitory constant (Ki) was found to be 29.4 ± 0.6 µM.
